2 compounds from PubChem BioAssay AID504454 (NMMLSC, 2011) can be followed below.

Protein sequences, listed by entry. Tags and fused reporters are not part of them.
UniProt P07550, whole entry: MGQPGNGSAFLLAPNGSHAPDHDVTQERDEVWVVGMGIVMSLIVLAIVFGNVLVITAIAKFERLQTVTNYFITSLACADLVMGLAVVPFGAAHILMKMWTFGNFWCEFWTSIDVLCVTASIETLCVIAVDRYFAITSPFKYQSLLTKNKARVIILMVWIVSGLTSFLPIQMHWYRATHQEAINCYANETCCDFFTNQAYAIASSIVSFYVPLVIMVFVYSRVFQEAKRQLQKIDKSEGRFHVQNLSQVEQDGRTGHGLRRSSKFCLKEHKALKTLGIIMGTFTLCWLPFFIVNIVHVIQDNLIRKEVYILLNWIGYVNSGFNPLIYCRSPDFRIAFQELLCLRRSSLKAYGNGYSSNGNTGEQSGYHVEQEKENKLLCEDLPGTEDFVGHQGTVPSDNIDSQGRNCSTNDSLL

Each structure is given as a SMILES string. The list shows a part of the results, in another mix than the full data. Calls of active or inactive are those of the source.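 Rule for the calls: active = response above a set limit, near 3 SD of response in nonfluorescent compounds (cut at about 42% in these data); inactive = the rest.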

The assay concerns the target Beta-2 adrenergic receptor (Homo sapiens) (UniProt P07550). The assay is described as follows: agonist-induced loss of surface beta2AR – cell-based, FAP fluorogen, flow cytometry, primary screen (AID 504454). The following applies: Am2.2-beta2AR cells, FAP receptor internalization, stronger effect = higher value, concentration not given here.
Take `CCC(=O)N(c1ccccc1)C1(COC)CCN(CCc2cccs2)CC1`: the response is inactive: 0.65%.

As to `CCC(=O)N(c1ccccc1)C1(COC)CCN(CCn2nnn(CC)c2=O)CC1`, the response was inactive: 1.49%.
